Assay results from PubChem BioAssay AID524 (The Scripps Research Institute Molecular Screening Center, 2006).
This is a selection; strong and weak results do not stand in their true shares. The source made the active and inactive calls.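 Rule for the calls: active = inhibition above the screen-wide mean inhibition plus 3 SD (cut at about 21% in these data); inactive = the rest.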

biological target: cAMP-dependent protein kinase catalytic subunit alpha (Homo sapiens) (UniProt P17612); assay: PKA catalytic subunit kinase inhibition – biochemical, ATP-depletion luminescence, Kemptide substrate, primary screen (AID 524); conditions: PKA Kemptide phosphorylation, Kinase-Glo ATP luminescence; at 6 µM; stronger effect = higher value

| Structure (SMILES) | inhibition |
| --- | --- |
| N#CC1(Nc2ccccc2)CCN(CCc2ccccc2)CC1 | inactive: 7.6% |
| COc1ccc(NC2CCN(CCc3ccccc3)CC2)c(OC)c1 | inactive: -4.7% |
| O=C(OC1CN2CCC1CC2)C1c2ccccc2Oc2ccccc21 (configuration not stated) | inactive: 5.9% |
| CCOc1ncccc1C(=O)NCC1(N2CCOCC2)CCCCC1 | inactive: 8.2% |
| CCC(CO)(C(=O)OC1CN2CCC1CC2)c1ccccc1 (configuration not stated) | inactive: -0.8% |
| Fc1ccccc1NC1CCN(Cc2ccccc2)CC1 | inactive: 8.5% |
| N/C(=N\O)c1c(N)no[n+]1[O-] | inactive: 2.6% |
